Assay results published in article PMC4526890, “Crystal structures of Mycobacterium tuberculosis GlgE and complexes with non-covalent inhibitors” (Scientific Reports, 2015).

Sequences of proteins named here, by UniProt entry; tags and fusion partners are left off.
UniProt Q9L1K2, whole entry V279S: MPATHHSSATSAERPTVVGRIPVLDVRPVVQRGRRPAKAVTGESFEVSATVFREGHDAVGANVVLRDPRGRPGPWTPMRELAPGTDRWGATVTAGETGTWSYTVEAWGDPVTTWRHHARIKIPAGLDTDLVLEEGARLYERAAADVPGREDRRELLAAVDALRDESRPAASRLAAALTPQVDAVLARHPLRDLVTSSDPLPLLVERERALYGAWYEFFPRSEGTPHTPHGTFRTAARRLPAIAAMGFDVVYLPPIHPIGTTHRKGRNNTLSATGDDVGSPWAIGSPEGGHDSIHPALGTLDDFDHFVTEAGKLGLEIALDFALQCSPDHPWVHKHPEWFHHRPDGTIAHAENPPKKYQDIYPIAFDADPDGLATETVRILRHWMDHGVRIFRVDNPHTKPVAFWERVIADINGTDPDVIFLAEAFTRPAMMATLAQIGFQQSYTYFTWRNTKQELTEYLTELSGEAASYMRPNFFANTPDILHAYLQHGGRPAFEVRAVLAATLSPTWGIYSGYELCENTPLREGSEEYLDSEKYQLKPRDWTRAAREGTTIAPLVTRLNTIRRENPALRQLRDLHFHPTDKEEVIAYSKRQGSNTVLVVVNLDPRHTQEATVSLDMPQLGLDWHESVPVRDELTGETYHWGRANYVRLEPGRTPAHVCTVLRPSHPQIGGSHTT

Target: T1, Sco GlgEI (Streptomyces coelicolor, UniProt Q9L1K2, V279S)
T1 construct: gene glgE1
Assay: X-ray crystal structure, […] Å co-crystal
Details: 18 mM ligand; pH 7.0 sodium citrate; M1P donor site (-1/-2 subsites and phosphate site)

O=P(O)(O)C[C@H]1O[C@H](CO)[C@@H](O[C@H]2O[C@H](CO)[C@@H](O)[C@H](O)[C@H]2O)[C@H](O)[C@H]1O [MCP, α-maltose-C-phosphonate]
X-ray crystal structure, 1.9 Å co-crystal: This compound was co-crystallized with the Sco GlgEI-V279S to characterize the molecular basis of this inhibition
